Ab-14 heavy chain CDR variants: yeast mating affinities

Antigen: PDVDLGDISGINAS, a 14-residue peptide of the SARS-CoV-2 spike HR2 region.

Each scFv is VH, the linker GGGGSGGGGSGGGGS, VL, as in the parent Ab-14, and differs from it in the CDRs of the heavy chain only.
VH: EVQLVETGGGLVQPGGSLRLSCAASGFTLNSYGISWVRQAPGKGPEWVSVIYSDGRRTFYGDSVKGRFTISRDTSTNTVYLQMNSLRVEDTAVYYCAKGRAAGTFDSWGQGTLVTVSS
VL: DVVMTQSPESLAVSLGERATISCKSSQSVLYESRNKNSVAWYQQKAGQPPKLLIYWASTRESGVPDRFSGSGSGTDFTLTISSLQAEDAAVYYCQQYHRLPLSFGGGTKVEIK

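The starting antibody came from a phage panning campaign against this peptide. This is the validation round: designs drawn from the data on random variants, tested in the same kind of assay. Group labels follow the data file (Ctrl: baseline library sampled from a position-specific scoring matrix, with some repeated check sequences; Rand: our label for a block that the file lists under HC and that is probably the random mutants of the ten best first-round binders; En: ensemble of fine-tuned language models; GP: Gaussian process model; GPLM: also part of the Gaussian process libraries; HC: hill climbing; Gen: genetic algorithm; Gibbs: Gibbs sampling; a sequence that several methods proposed may carry one label only). AlphaSeq pools MATa yeast showing the antibodies with MATalpha yeast showing the peptide. The frequency of each diploid, read from paired DNA barcodes, reflects how well the two displayed proteins bind. A regression on co-assayed BCL2-family reference pairs converts the normalised counts of each replicate to an apparent Kd. The assay was run in six technical replicates.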

Each variant is given by its three heavy chain CDRs, as the data file delimits them; those of the parent are GFTLNSYGIS, VIYSDGRRTFYGDSVK, GRAAGTFDS.
Scale: log10 of Kd in nM, estimated from mating counts; low values are strong binders.
The mean shown is taken over the replicates in which the pair was detected.
"no signal" marks a missing value. The strain was present, yet no cells mated with the target were sequenced in any replicate, which points to weak or no binding.
In the paper, a design with two or fewer of six values counts as a poor binder.
Of ten entries with the parent sequence, four were seen in most replicates (averages 0.34 to 2.37), three in one and three in none, so single entries are noisy.
Empty control strains, which show no peptide, gave a signal in 1% of pairings with all heavy chain designs; the median was 2.08 and 95% of these signals were weaker than 0.84. No background was subtracted.
The range of this assay differs from that of the first round, and the authors advise against merging the two.

| # | CDR-H1 | CDR-H2 | CDR-H3 | group | mean log10 Kd (nM) | detected |
|---|---|---|---|---|---|---|
| 1 | GFSLNSYGIS | VIYSDGRRTFYGDSVK | GMEAGTFDD | GP_Gibbs | 0.20 | 6/6 |
| 2 | GFDLNSYGIS | VIYSDGRRTFYIDSVK | GRQAGTFDS | GPLM_Gibbs | 0.46 | 6/6 |
| 3 | GFTLNKYGIS | VIYSDGRRTFYGDSVK | GRAMGAFDL | Ctrl | no signal | 0/6 |
| 4 | GFELNDYGIS | VIYSDGRRTFYDDSVK | GRAAGTFDS | GP_HC | 1.59 | 5/6 |
| 5 | GFDLNEYGIS | VIYADGVRKAYSDSVK | GQNAGTFDV | En_Gen | -0.35 | 6/6 |
| 6 | GFLLNEYGIS | VIYSDGRRTFYKDSVK | GRAAGTFDS | GP_HC | 1.70 | 1/6 |
| 7 | GFDLEDYGIS | VIYADGKRTAYIDSVK | GEVAGTFDV | En_HC | -0.08 | 6/6 |
| 8 | GFSLNNYGIS | VIYSDGRRTFYGDSVK | GRTAGTFWS | GPLM_Gen | no signal | 0/6 |
| 9 | GFDLNEYGIS | VIYADGKRTVYADSVK | GNNAGTFDV | En_Gen | -0.07 | 6/6 |
| 10 | GFSLNSYGIS | VIYSDGRRTFYSDRVK | GQTAGTFDS | GP_Gibbs | 0.31 | 6/6 |
| 11 | GFPLDSYGIS | VIYSDGRRTFYGDSVK | GRNAGTFDS | Ctrl | 1.29 | 6/6 |
| 12 | GFWLNDYGIS | VIYSDGRRTFYIDTVK | GNAAGTFDS | GP_HC | 1.66 | 2/6 |
| 13 | GFDLNEYGIS | VIYADGMRTAYIDSVK | GNVAGTFDM | En_Gen | -0.25 | 6/6 |
| 14 | GFQLNSYGIS | VIYSDGRRTFYQDSVK | GRTAGTFDL | GP_Gibbs | 1.58 | 1/6 |
| 15 | GFLLNDYGIS | VIYSDGRRTFYKDSVK | GNAAGTFDS | GP_HC | 0.65 | 5/6 |
| 16 | GFTLNDYGIS | VIYSDGRRTMYIDSVK | GRAAGTFIS | GP_HC | 1.29 | 6/6 |
| 17 | GFNLNSYGIS | VIYSDGRRTFYGDSVK | GWQAGTFDS | GP_Gen | 2.11 | 6/6 |
| 18 | GQNLDEYGIS | VIYADGMRKWYADSVK | GNMSAGLVA | En_Gibbs | no signal | 0/6 |
| 19 | GFSLNSYGIS | VIYSDGRRTFYGDSVK | GREAGTFDA | GP_Gen | 0.62 | 6/6 |
| 20 | GFTLAQYGIS | VIYSDGRRTFYSPSVK | IVAAGFFMS | Rand | no signal | 0/6 |
| 21 | GFTLNSYGIS | VIYADGRRTFYGDEVK | GRAAGMFDS | Ctrl | no signal | 0/6 |
| 22 | GFTLNDYGIS | VIYSDGRRTFYIDSVK | GRAAGQFDS | GPLM_HC | no signal | 0/6 |
| 23 | GFHLNSYGIS | VIYSDGRRTFYGDSVK | GRTAGTFDS | GPLM_Gen | 0.27 | 6/6 |
| 24 | GFTLDSYGIS | VIYSDGRRTFYGDGVK | GRTAGTFDS | GPLM_HC | 1.17 | 5/6 |
| 25 | GFTLNSYGIS | VIYADGRRTFYGDSVK | GRTAGTFDT | GPLM_Gen | 0.17 | 6/6 |
| 26 | GFTLNSYGIS | VIYSDGRRTFYIDSVK | GRAAGRFDS | Ctrl | no signal | 0/6 |
| 27 | GFTLNSIGIS | VIYSDGRRTFYGDSVK | GPAAGTFDS | Ctrl | no signal | 0/6 |
| 28 | GFWLNEYGIS | VIYSDGRRTMYGDSVK | GRQAGTFDS | GP_Gibbs | 0.60 | 4/6 |
| 29 | GFNLEDYGIS | VIYADGRRTFYVDSVK | GQVAGTFDV | En_HC | -0.51 | 6/6 |
| 30 | GRNLDEYGIS | VIYADGQRTSYRDNVK | GQNSGHLDM | En_Gibbs | no signal | 0/6 |
| 31 | GFTLNSYGIS | VIYSDGRRTFYSDSVK | GMAGGTFDL | GPLM_HC | 1.15 | 6/6 |
| 32 | GFTLNEYGIS | VIYSDGRRTFYGDSVK | GRAAGTFDN | GPLM_HC | 0.73 | 6/6 |
| 33 | GFNLEDYGIS | VIYADGKRQAYTENVK | CHSDGVMVV | En_Gibbs | no signal | 0/6 |
| 34 | GFTLNEYGIS | VIYSDGRRTFYGDSVK | GRAAGTFKF | GP_HC | no signal | 0/6 |

Further variants, results first:

| # | mean log10 Kd (nM) | detected | CDR-H1 | CDR-H2 | CDR-H3 | group |
|---|---|---|---|---|---|---|
| 35 | no signal | 0/6 | GDDLEDYGIS | VIYADGRRTAYQESVK | GLYAGMLDV | En_Gibbs |
| 36 | -0.19 | 6/6 | GFDLNEYGIS | VIYADGRRTAYSDSVK | GGNAGTFDD | En_HC |
| 37 | 1.23 | 2/6 | GFKLNSYGIS | VIYSDGRRTFYDDSVK | GRTAGTFDS | GP_HC |
| 38 | -0.56 | 6/6 | GFDLNEYGIS | VIYADGMRTFYSDSVK | GTVAGTFDV | En_HC |
| 39 | -0.01 | 6/6 | GFSLNEYGIS | VIYSDGRRTFYQDSVK | GQAAGTFDS | GPLM_Gen |
| 40 | 1.34 | 5/6 | GFYLNDYGIS | VIYSDGRRTFYIDSVK | GRLAGTFDS | GP_HC |
| 41 | 0.57 | 6/6 | GFTLNNYGIS | VIYSDGMRTFYSDSVK | GRAAGTFDS | GPLM_HC |
| 42 | 0.29 | 6/6 | GFDLNEYGIS | VIYADGRRTFYDDSVK | GESAGTFDQ | En_HC |
| 43 | 0.40 | 6/6 | GFDLNSYGIS | VIYSDGRRTFYGDQVK | GKAAGTFDS | GPLM_Gen |
| 44 | 0.76 | 6/6 | GFNLNSYGIS | VIYSDGRRTFYHDSVK | GRAAGTFDS | GPLM_Gen |
| 45 | no signal | 0/6 | GFNLDEYGIS | VIYADGTRTSYQPNVK | GVKGGHDVT | En_Gibbs |
| 46 | no signal | 0/6 | GENLDEYGIS | VIYADGIREAYANQVK | GEQGGYFNT | En_Gibbs |
| 47 | -0.58 | 6/6 | GFDLNEYGIS | VIYADGVRTAYADNVK | GNVAGTFDL | En_Gen |
| 48 | no signal | 0/6 | GTTLNSYGIS | VIYSDGRRTFYGDSVK | GRAAGTFDL | Ctrl |
| 49 | 1.79 | 6/6 | GFSINEYGIS | VIYSDGRRTFYGDAVK | GRAAGCFDS | Ctrl |
| 50 | no signal | 0/6 | GFTLNSYGIS | VIYSDGRRTAYGDSVK | GENAGTFWS | Ctrl |
| 51 | no signal | 0/6 | GFELDEYGIS | VIYADGARTAYVDNVK | GDAVGIFHV | En_Gibbs |
| 52 | 1.40 | 6/6 | GFALNSYGIS | VIYSDGRRTFYQDSVK | GQAAGTFDS | GP_Gibbs |
| 53 | no signal | 0/6 | GFTLESYGIS | VIYADGRRTFYGDPVK | GRAAGTFKS | GP_HC |
| 54 | no signal | 0/6 | GKSLDEYGIS | VIYADGMRTFYANTVK | GEDGGFYNQ | En_Gibbs |
| 55 | 0.09 | 6/6 | GFDLNEYGIS | VIYADGRRKAYADSVK | GNQAGTFDV | En_Gen |
| 56 | 0.63 | 6/6 | GFVLNEYGIS | VIYSDGRRTFYGDSVK | GKTAGTFDS | GPLM_Gibbs |
| 57 | no signal | 0/6 | GFHVNSYGIS | VIYSDGRRTFYGDSVK | GREAGTFNS | Ctrl |
| 58 | -0.50 | 6/6 | GFSLNEYGIS | VIYSDGRRTFYGDSVK | GQTAGTFDN | GP_Gibbs |
| 59 | no signal | 0/6 | GFNLNEPGIS | VIYSDGRRTFYTDSIK | GRFAGCFDS | Rand |
| 60 | no signal | 0/6 | GFGLDEYGIS | VIYADGRRTFYADSVK | GENAGTFIM | En_HC |
| 61 | 0.70 | 4/6 | GFTLNSYGIS | VIYSDGRRTFYGDSVK | GVEAGTFDS | GPLM_Gibbs |
| 62 | 1.28 | 1/6 | GFTLNRYGIS | VIYFDGRRTFYSDSVK | GRAGGTFDS | Rand |
| 63 | 0.42 | 5/6 | MFSLNEYGIS | VIYSDGRRTFYGDSVK | GRAAGTFDS | GP_Gibbs |
| 64 | 0.91 | 3/6 | GFTPNDYGIS | VIYSDGKRTFYGDSVK | VRAADTFDW | Ctrl |
| 65 | no signal | 0/6 | GFTCNEYGIS | VIYSDGRRTFVTDSVK | GRFVGTFDS | Rand |
| 66 | 1.64 | 1/6 | GFPLNKYGIS | VIYSDGRRTFYGDSVK | GRSAGTFDS | Ctrl |
| 67 | no signal | 0/6 | GYDLNEYGIS | VIYADGVRVAYQNQVK | GNINGSFTF | En_Gibbs |
| 68 | no signal | 0/6 | GFELNSYGIS | VIYSDGRRTFYGDSVK | GVHAGTFDS | GPLM_Gibbs |
| 69 | 0.01 | 6/6 | GFDLNEYGIS | VIYADGVRTAYADDVK | GTNAGTFDM | En_Gen |

For reference, 7 entries of the list once more:

| CDR-H1 | CDR-H2 | CDR-H3 | group | mean log10 Kd (nM) | detected |
|---|---|---|---|---|---|
| GFSLNNYGIS | VIYSDGRRTFYGDSVK | GRTAGTFWS | GPLM_Gen | no signal | 0/6 |
| GFLLNDYGIS | VIYSDGRRTFYKDSVK | GNAAGTFDS | GP_HC | 0.65 | 5/6 |
| GFTLAQYGIS | VIYSDGRRTFYSPSVK | IVAAGFFMS | Rand | no signal | 0/6 |
| GFSLNEYGIS | VIYSDGRRTFYGDSVK | GQTAGTFDN | GP_Gibbs | -0.50 | 6/6 |
| GFDLNEYGIS | VIYADGVRTAYADDVK | GTNAGTFDM | En_Gen | 0.01 | 6/6 |
| GFQLNSYGIS | VIYSDGRRTFYQDSVK | GRTAGTFDL | GP_Gibbs | 1.58 | 1/6 |
| GFTLNNYGIS | VIYSDGMRTFYSDSVK | GRAAGTFDS | GPLM_HC | 0.57 | 6/6 |

From the AlphaSeq antibody data of Li et al. 2023 (doi:10.1038/s41467-023-39022-2), copy in the FLAb collection.